Literature values, collected in patent US20230372302A1 (priority 2019, published 2023).
Structures can show the parent of a compound that is named as a salt.

Tests used:
[1] = human, in vivo; cited from earlier work
[2] = pH 7.4; cited from earlier work

SMILES: COc1cc2nc(N(C)CCCNC(=O)C3CCCO3)nc(N)c2cc1OC.Cl (racemic) [ALFUZOSIN, (R,S)—N-[3-[(4-amino-6,7-dimethoxy-2-quinazolinyl)methylamino]propyl] tetrahydro-2-furancarboxamide hydrochloride]
- dizziness [1]: 6%
- hypotension [1]: 0.4%
- syncope [1]: 0.2%

SMILES: COc1cc2nc(N3CCN(C(=O)C4CCCO4)CC3)nc(N)c2cc1OC (racemic) [TERAZOSIN, (RS)-Piperazine,1-(4-amino-6,7-dimethoxy-2-quinazolinyl)-4-[(tetra-hydro-2-furanyl)carbonyl]-, monohydrochloride, dihydrate]
- postural hypotension [1]: 4%
- syncope [1]: 0.6%

SMILES: CCOC(=O)c1ncn2c1CN(C)C(=O)c1cc(F)ccc1-2 [Flumazenil, ethyl 8-fluoro-5,6-dihydro-5-methyl-6-oxo-4H-imidazo[1,5-a](1,4) benzodiazepine-3-carboxylate]
- octanol: buffer partition coefficient [2]: 14 to 1

SMILES: COc1cc2nc(N3CCN(C(=O)c4ccco4)CC3)nc(N)c2cc1OC.Cl [prazosin, 1-(4-amino-6,7-dimethoxy-2-quinazolinyl)-4-(2-furoyl) piperazine]
- syncope and symptoms of hypotension, subjects receiving [1]: 6-12%

SMILES: CCOc1ccccc1OCCN[C@H](C)Cc1ccc(OC)c(S(N)(=O)=O)c1 [tamsulosin, (−)-(R)-5-[2-[[2-(o-Ethoxyphenoxy)ethyl]amino]propyl]-2-methoxybenzenesulfon-amide, monohydrochloride]
- incidence of hypotension, syncope, vertigo [1]: 0.2-0.6%
